Measurements taken from US11845740B2, “Glutaminyl cyclase inhibitors and the use thereof in treatment of various diseases” (OBSCHESTVO S OGRANICHENNOI OTVETSTVENNOSTIYU …, priority 2017, dated 2023).
Read-outs that look alike come from different tables or passages of the source.

Columns and labels:
[1] = test system: male white nonlinear rats; test: Carrageenan-induced rat paw edema; assay type: in vivo; settings: 1 hour before carrageenan, 2 hours after carrageenan
Method: Experiments were performed on male white nonlinear rats weighing 250-270 g.

Male Balb/c mice = settings: 3 mg/kg intragastrically every 10-12 hours; 48 hours after carrageenan
guinea pigs = settings: intragastric daily for 10 days, 0.14-14 mg/kg

O=C(NCCc1c[nH]cn1)c1cccc(C(=O)NCCc2c[nH]cn2)c1 [Compound II, N,N′-bis[2-(1H-imidazol-4-yl)ethyl]isophthalamide]
Inhibition of edema growth ([1]; 0.18 mg/kg intragastrically once): 34%
Inhibition of edema growth ([1]; 1.8 mg/kg intragastrically once): 34%
Leukocytes in the exudate (Male Balb/c mice): 1.0 ± 0.1 & × 10^9/1
Macrophages in the exudate (Male Balb/c mice): 0.5 ± 0.1 & × 10^9/1

O=C(NCCc1cnc[nH]1)C(=O)NCCc1cnc[nH]1 [Compound I, N,N′-bis[2-(1H-imidazol-4-yl)ethyl]oxalamide]
Influx of inflammatory cells in the bronchoalveolar space (guinea pigs): has reduced the influx of inflammatory cells in the bronchoalveolar space
Lymphocytes (male guinea pigs; 0.014 mg/kg intragastrically daily day 10-19): 88 ± 29 in 1 μl of the bronchoalveolar lavage
Lymphocytes (male guinea pigs; 1.4 mg/kg intragastrically daily day 10-19): 71 ± 29 in 1 μl of the bronchoalveolar lavage
